One compound from patent US5424451A, “Process for preparing aminoalkylcarbamic esters of eseroline” (priority 1992, dated 1995) can be followed below.

The chains behind the UniProt entries cited, without tags or fusion partners. Residues count along the entry.
UniProt O42275, 24-633: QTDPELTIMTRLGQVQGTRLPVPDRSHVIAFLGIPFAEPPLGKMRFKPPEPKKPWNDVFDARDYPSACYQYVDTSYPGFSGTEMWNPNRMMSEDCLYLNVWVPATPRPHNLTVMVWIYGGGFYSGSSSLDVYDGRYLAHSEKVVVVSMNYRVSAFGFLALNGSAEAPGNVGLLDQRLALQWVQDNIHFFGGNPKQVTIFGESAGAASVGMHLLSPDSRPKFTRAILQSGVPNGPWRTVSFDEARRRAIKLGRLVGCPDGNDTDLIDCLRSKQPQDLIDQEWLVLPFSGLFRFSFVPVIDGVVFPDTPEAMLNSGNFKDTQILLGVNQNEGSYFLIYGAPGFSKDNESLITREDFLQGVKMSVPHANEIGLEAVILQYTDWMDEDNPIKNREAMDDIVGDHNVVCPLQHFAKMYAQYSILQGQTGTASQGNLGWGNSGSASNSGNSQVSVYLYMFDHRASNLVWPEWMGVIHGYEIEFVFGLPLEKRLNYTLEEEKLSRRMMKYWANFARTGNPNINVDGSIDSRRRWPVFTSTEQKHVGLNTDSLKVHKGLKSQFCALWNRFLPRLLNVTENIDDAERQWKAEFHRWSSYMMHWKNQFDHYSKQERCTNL

For the assay, the target named is T1, acetylcholinesterase from electric eel (Electrophorus electricus, UniProt O42275).
T1 construct: purchased Sigma Chemical; host or cells: electric eel
Put plainly: biochemical. Particulars: Cholinesterase Inhibition IC50, AChE E.eel.

`CNC(=O)Oc1ccc2c(c1)[C@]1(C)CCN(C)[C@@H]1N2C` [ESERINE, physostigmine] displayed an IC50 of 150 nM.
